In PMC6151961 (Journal of Enzyme Inhibition and Medicinal Chemistry, 2018):

Key:
CA IX [1] = target: T1, CA IX (Homo sapiens, UniProt Q16790); details: cited from earlier work
CA IX [2] = target: T1, CA IX; experiment: biochemical

SMILES | Ki (CA IX [1]) | Ki (CA IX [2])
Cc1cc(=O)oc2cc(O[C@H]3OC[C@@H](O)[C@@H](O)[C@@H]3O)ccc12 [B0791] | 3.2 µM | 3.2 µM
CC(=O)OC[C@@H]1O[C@@H](O[C@H]2[C@@H](OC(C)=O)[C@H](OC(C)=O)[C@@H](NC(=S)NCc3ccc(S(N)(=O)=O)cc3)O[C@@H]2COC(C)=O)[C@@H](OC(C)=O)[C@@H](OC(C)=O)[C@H]1OC(C)=O [B0143] | 0.0073 µM | –

Like-named read-outs stand apart in the source and are kept apart here.
